Source: patent US9339541B2, “Thiophosphate nucleosides for the treatment of HCV” (priority 2013, dated 2016)

test: Cytotoxicity evaluation, CellTiter-Blue Cell Viability Assay; assay type: cell-based; conditions: human, Zluc cells (HCV replicon cells)
Method: The plates were then incubated at 37° C./5% CO2 for at least 3 hours.

| Compound | CC50 at 72 h |
| --- | --- |
| CCOc1nc(N)nc2c1ncn2[C@@H]1O[C@H](COP(=O)(N[C@@H](C)C(=O)OC(C)C)SCC2NC(=O)NC2=O)[C@@H](O)[C@@]1(C)F (single isomer, unassigned) [3b Diastereomer 1] | > 50 µM |
| CC(C)OC(=O)[C@H](C)NP(=O)(OC[C@H]1O[C@@H](n2ccc(=O)[nH]c2=O)[C@](C)(O)[C@@H]1O)SCC1NC(=O)NC1=O (single isomer, unassigned) [4b Diastereomer 1] | > 50 µM |
| CC(C)OC(=O)[C@@H](C)NP(=O)(OC[C@H]1O[C@@H](n2ccc(=O)[nH]c2=O)[C@](C)(Cl)[C@@H]1O)SC1CCCC1 (single isomer, unassigned) [8a Diastereomer 1] | > 50 µM |
| CC(C)OC(=O)[C@H](C)NP(=O)(OC[C@H]1O[C@@H](n2ccc(=O)[nH]c2=O)[C@](C)(Cl)[C@@H]1O)SC1CCCC1 (single isomer, unassigned) [8b Diastereomer 1] | > 50 µM |
| COC(=O)N[C@@H](CSP(=O)(N[C@@H](C)C(=O)OC(C)C)OC[C@H]1O[C@@H](n2cnc3c(OC)nc(N)nc32)[C@](C)(O)[C@@H]1O)C(=O)OC(C)C (stereo partly drawn) [Compound 2by] | > 50 µM |
| CCOC(=O)[C@H](C)NP(=O)(OC[C@H]1O[C@@H](n2cnc3c(OCC)nc(N)nc32)[C@](C)(O)[C@@H]1O)SCC (stereo partly drawn) [Compound 10b] | > 50 µM |
| CCOC(=O)[C@H](C)NP(=O)(OC[C@H]1O[C@@H](n2cnc3c(=O)[nH]c(N)nc32)[C@](C)(O)[C@@H]1O)SCC (stereo partly drawn) [Compound 13b] | > 50 µM |
| CCOC(=O)CCSP(=O)(N[C@@H](C)C(=O)OC(C)C)OC[C@H]1O[C@@H](n2ccc(=O)[nH]c2=O)[C@](C)(O)[C@@H]1O (stereo partly drawn) [Compound 15b] | > 50 µM |
| COC(=O)CSP(=O)(N[C@@H](C)C(=O)OC(C)C)OC[C@H]1O[C@@H](n2ccc(=O)[nH]c2=O)[C@](C)(Cl)[C@@H]1O (stereo partly drawn) [Compound 17b] | > 50 µM |
